Measurements taken from PubChem BioAssay AID2717 (Broad Institute, 2010).
The entries are a selection whose mix differs from that of the whole data set. The source made the active and inactive calls. Cut-off read from the data, not from the text of the source: active = inhibition above about 75%; inconclusive = no clear call, values can overlap the other calls; inactive = below that; tested in HMLE shEcad cells.

Experiment: growth suppression of cancer stem-like cells – cell-based, luminescence, primary screen (AID 2717)
Details: cancer stem cell-like cells viability, at 7.5 µM, stronger effect = higher value

SMILES | inhibition
Nc1ccc2c(ccc3cccnc32)n1.O=[N+]([O-])c1cc([N+](=O)[O-])c(O)c([N+](=O)[O-])c1 | inactive: -8.58%
CP(=O)(OC12CC3CC(CC(C3)C1)C2)OC12CC3CC(CC(C3)C1)C2 | inactive: 26.1%
CCOC(=O)c1ccc(NP(C)(=O)Oc2ccc(Cl)cc2)cc1 (centres undefined) | inactive: -1.18%
O=C(Nc1cc([As](=O)(O)O)ccc1O)c1ccccc1 | inactive: -12.2%
CC(C)(C)C(=O)NC(Sc1ccncn1)C(Cl)(Cl)Cl (centres undefined) | inactive: -15.6%
O=C(O)CNc1ccc([As](=O)(O)O)cc1 | inactive: -12.9%
O=[N+]([O-])c1cccc(NC2=NCC(CBr)S2)c1 (centres undefined) | inactive: -10.5%
COc1ccc(OP(C)(=O)Nc2ccc(Br)cc2)cc1 (centres undefined) | inactive: 14.3%
COc1ccc(C2=NCC(CBr)S2)cc1 (centres undefined) | inactive: 2.52%
CP(=O)(Oc1ccccc1)N1CCOC1=O (centres undefined) | inactive: -6.67%
CCc1nc2c(n1)c1c(non1O)c1c2no[n+]1[O-] | inactive: 62.6%
O=[N+]([O-])c1cc([N+](=O)[O-])c(CCNc2ccccc2)c([N+](=O)[O-])c1 | inactive: 17.6%
O=[N+]([O-])c1cccc2n[nH]nc12 | inactive: -3.9%
CC(=O)N1C2C3N(C(C)=O)C1C1N(C(C)=O)C(C(N1C(C)=O)N3C(C)=O)N2C(C)=O | inactive: -4.67%
COc1ccccc1OP(C)(=O)Nc1c(C)n(C)n(-c2ccccc2)c1=O (centres undefined) | inactive: -6.02%
O=C(OCCCN1CCCC1)C(O)(c1ccccc1)C1CCCCC1 (centres undefined) | inactive: 2.07%
CCN(/C(=N/P(=O)(N1CCOCC1)N1CCOCC1)N1CCOCC1)c1ccc(OC)cc1 | inactive: -15.6%
CP(=O)(Nc1ccc(Cl)cc1)Oc1ccc(F)cc1 (centres undefined) | inactive: -2.17%
COc1ccccc1OP(C)(=O)Nc1ccccc1Br (centres undefined) | inactive: 13.9%
Nc1ccc([As](=O)(O)c2ccc(N)cc2)cc1 | inactive: -2.82%
C[N+]1=C2C=CC=CC=C2SC12C([N+](=O)[O-])=CC([N+](=O)[O-])=C[C-]2[N+](=O)[O-] (centres undefined) | inactive: 44.5%
CC1CCN(C(=O)Oc2c(Cl)cc(Cl)c3cccnc23)CC1 | inactive: 3.27%

SMILES | inhibition
CN(C)C(=O)c1c([N+](=O)[O-])cc([N+](=O)[O-])cc1[N+](=O)[O-] | inactive: 2.25%
CC(C)=N/N=C(\N)N[N+](=O)[O-] | inactive: -0.9%
CN(C)C(=O)OCCc1n(C)cc[n+]1C | inactive: -4.92%
CN(C(=O)Cc1ccc(Cl)c(Cl)c1)[C@H]1CCCC[C@H]1N1CCCC1 | inactive: -0.887%
COc1ccccc1OP(C)(=O)Nc1ccc(Br)cc1 (centres undefined) | inactive: -10.9%
Cc1ccc(N/C(=N/P(=O)(N2CCOCC2)N2CCOCC2)N2CCOCC2)cc1 | inactive: -5.93%
NC(=O)c1cc([N+](=O)[O-])cc([N+](=O)[O-])c1N | inactive: 3.89%
CN1CCCC(OC(=O)C(c2ccccc2)c2ccccc2)C1 (centres undefined) | inactive: -21.8%
Clc1ccc(Cl)c(NC2=NCC(CBr)S2)c1 (centres undefined) | inactive: -5.46%
COc1ccccc1OP(=O)(Nc1ccc(C)cn1)Oc1ccccc1OC | inactive: -11.5%
COc1ccc(OP(C)(=O)Nc2ccccn2)cc1 (centres undefined) | inactive: -15.1%
Cc1ccc(OP(=O)(Nc2nccs2)Oc2ccc(C)cc2)cc1 | inactive: -11.2%
Oc1ccccc1CNc1ccccn1 | inactive: -8.2%
O=C(NC(Sc1ccncn1)C(Cl)(Cl)Cl)c1ccccc1 (centres undefined) | inactive: -8.71%
Cc1c2non([O-])c-2c(C)[n+](=O)[n+]1[O-] | inactive: 2.22%
Cc1c(NP(C)(=O)Oc2ccc(C(C)C)cc2)c(=O)n(-c2ccccc2)n1C (centres undefined) | inactive: -14.4%
Nc1cc(N)c2nonc2c1[N+](=O)[O-] | inactive: -5.13%
CC(C)CC(=O)NC(Sc1ccc(Cl)cc1)C(Cl)(Cl)Cl (centres undefined) | inactive: -11.6%
O=[N+]([O-])c1cc([N+](=O)[O-])c(Nc2ccccn2)c([N+](=O)[O-])c1 | inactive: 34.7%
CCc1ccc(OP(C)(=O)O)cc1 | inactive: -1.64%
CP(=O)(Nc1ccccn1)Oc1ccccc1 (centres undefined) | inactive: -3.11%
COc1ccccc1OP(C)(=O)Nc1ccc(C)cc1C (centres undefined) | inactive: -8.17%

SMILES | inhibition
O=P(Nc1nc2ccc(Cl)cc2s1)(c1ccccc1)c1ccccc1 | inactive: 43.3%
Cc1cc(C)cc(OP(C)(=O)Nc2cccc(C(F)(F)F)c2)c1 (centres undefined) | inactive: -10.7%
CC(=O)Nc1ccc([As](=O)(O)O)cc1 | inactive: -5.44%
O=C(O)c1ccccc1[As](=O)(O)O | inactive: -1.17%
COc1ccc(OP(C)(=O)Nc2ccccc2Br)cc1 (centres undefined) | inactive: -4.41%
Cc1cc(SC(NC(=O)c2ccc(F)cc2)C(Cl)(Cl)Cl)ncn1 (centres undefined) | inactive: 22.3%
CCOP(=O)(Nc1ccccc1)OCC | inactive: -17.3%
COc1ccccc1OP(C)(=O)Nc1ccc(C)c(C)c1 (centres undefined) | inactive: -12.6%
Cc1ccc(NP(=O)(Oc2ccccc2F)Oc2ccccc2F)nc1 | inactive: -8.76%
CN(C(=O)Cc1ccc(Cl)c(Cl)c1)[C@H]1CCCC[C@@H]1N1CCCC1 | inactive: -11.5%
O=[N+]([O-])c1cc([N+](=O)[O-])c(CCN2CCOCC2)c([N+](=O)[O-])c1 | inactive: -0.576%
Nc1cccc2ccc([As](=O)(O)O)cc12 | inactive: -3.78%
CP(=O)(Nc1ccc(Cl)cc1Cl)Oc1ccccc1 (centres undefined) | inactive: -4.13%
CP(=O)(OCCOc1ccccc1)OCCOc1ccccc1 | inactive: -8.33%
CCN(N=Nc1nonc1N)c1nonc1N | inactive: -4.16%
c1ccc(-c2nn[nH]n2)c(-c2nn[nH]n2)c1 | inactive: -0.0447%
Cc1ccc(NP(=O)(Oc2cccc(C)c2)Oc2cccc(C)c2)nc1 | inactive: 0.157%
CCOC(=O)NC(Sc1ccccc1)C(Cl)(Cl)Cl (centres undefined) | inactive: -5.87%
CCNC(=S)/N=C(\N)N[N+](=O)[O-] | inactive: 5.07%
O=C(NC1CCS(=O)(=O)C1)NP(=S)(Oc1ccccc1)Oc1ccccc1 (centres undefined) | inactive: 10.6%
